Measured affinities in a library of Ab-14 light chain variants

From the AlphaSeq antibody data of Engelhart et al. 2022 (doi:10.1038/s41597-022-01779-4), copy in the FLAb collection.

All variants were tested on one target, the spike HR2 peptide PDVDLGDISGINAS (SARS-CoV-2).

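The library (AAYL50) carries one to three amino acid substitutions per variant, with no insertions or deletions. The scFvs were displayed on barcoded MATa yeast, the peptide on MATalpha yeast. Pairs that bind mate more often; barcode pairs of the diploids are counted by sequencing. Read counts were normalised to the haploid input and turned into Kd by a linear fit to BCL2-family pairs of known affinity, for each replicate. There are three technical replicates.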

Ab-14 is the parent antibody, in scFv form: VH, then three GGGGS repeats, then VL. The heavy chain is unchanged in all variants.
VH: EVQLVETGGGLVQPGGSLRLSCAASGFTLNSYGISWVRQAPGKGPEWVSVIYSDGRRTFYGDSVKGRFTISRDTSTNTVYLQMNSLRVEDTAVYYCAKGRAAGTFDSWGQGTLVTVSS
VL: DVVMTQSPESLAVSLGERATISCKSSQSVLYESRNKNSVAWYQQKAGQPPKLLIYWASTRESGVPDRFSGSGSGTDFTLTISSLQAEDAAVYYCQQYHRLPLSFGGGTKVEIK

Each variant is given by its three light chain CDRs, as the data file delimits them; those of the parent are KSSQSVLYESRNKNSVA, WASTRES, QQYHRLPLS.
Numbers give log10(Kd / nM), so 0 is 1 nM and 3 is 1 µM. Smaller is tighter.
Replicates are averaged; those with no signal do not enter the mean.
"nd" marks a missing value. The strain was present, yet no cells mated with the target were sequenced in any replicate, which points to weak or no binding.

{"CDR-L1": "KSAQSVLYESRNKNSMA", "CDR-L2": "WASTRES", "CDR-L3": "QQYHRLPLS", "mean, log10 nM": "0.76", "replicates with signal": "3 of 3"}
{"CDR-L1": "KSRQSVLYFSRNKNSVA", "CDR-L2": "WASTRES", "CDR-L3": "QVYHRLPLS", "mean, log10 nM": "3.26", "replicates with signal": "2 of 3"}
{"CDR-L1": "KSSQSVLYESQNKNSVA", "CDR-L2": "WASTRES", "CDR-L3": "QQYHFLVLS", "mean, log10 nM": "nd", "replicates with signal": "0 of 3"}
{"CDR-L1": "KSSQSVLYEMRNKNCVA", "CDR-L2": "WASTRES", "CDR-L3": "QQYHRLVLS", "mean, log10 nM": "3.07", "replicates with signal": "3 of 3"}
{"CDR-L1": "KSSQSVLYESRNKNSVA", "CDR-L2": "WASTREA", "CDR-L3": "KQYHRLPLQ", "mean, log10 nM": "0.51", "replicates with signal": "3 of 3"}
{"CDR-L1": "KSSGSVLYESRNKNSVA", "CDR-L2": "WASTIES", "CDR-L3": "QQYHRLMLS", "mean, log10 nM": "3.76", "replicates with signal": "2 of 3"}
{"CDR-L1": "KSSYSVLYESRNKNSVA", "CDR-L2": "WASTRNS", "CDR-L3": "QIYHRLPLS", "mean, log10 nM": "1.89", "replicates with signal": "3 of 3"}
{"CDR-L1": "KSSISVLYESRPKNSVA", "CDR-L2": "WASTRES", "CDR-L3": "QQYHFLPLS", "mean, log10 nM": "nd", "replicates with signal": "0 of 3"}
{"CDR-L1": "KSKQSVLYESRNKNIVA", "CDR-L2": "WWSTRES", "CDR-L3": "QQYHRLPLS", "mean, log10 nM": "3.91", "replicates with signal": "1 of 3"}
{"CDR-L1": "KSSQSVLTESRNKNSVA", "CDR-L2": "NASTRHS", "CDR-L3": "QQYHRLPLS", "mean, log10 nM": "3.80", "replicates with signal": "1 of 3"}
{"CDR-L1": "KSSQSVLYESRNKNSCA", "CDR-L2": "WASAHES", "CDR-L3": "QQYHRLPLS", "mean, log10 nM": "4.13", "replicates with signal": "1 of 3"}
{"CDR-L1": "KSSQSVLYESRNKMSVA", "CDR-L2": "WPSTRES", "CDR-L3": "QQTHRLPLS", "mean, log10 nM": "4.89", "replicates with signal": "1 of 3"}
{"CDR-L1": "TSSQSVLYESRNGNSVA", "CDR-L2": "WASTRES", "CDR-L3": "QQYHRLPLS", "mean, log10 nM": "1.48", "replicates with signal": "3 of 3"}
{"CDR-L1": "FSSQSVLYESRNKNSVA", "CDR-L2": "WASTREE", "CDR-L3": "QQYHRLPLH", "mean, log10 nM": "2.04", "replicates with signal": "3 of 3"}
{"CDR-L1": "KSSQSVLYESRNKNSVA", "CDR-L2": "PASTRES", "CDR-L3": "QWWHRLPLS", "mean, log10 nM": "5.30", "replicates with signal": "1 of 3"}
{"CDR-L1": "KSPQSVLYESRNKNSVA", "CDR-L2": "WASTRES", "CDR-L3": "KQYHALPLS", "mean, log10 nM": "4.74", "replicates with signal": "2 of 3"}
{"CDR-L1": "KSSQSWLYESRNKNSVA", "CDR-L2": "WASTRES", "CDR-L3": "QQYHRLPCS", "mean, log10 nM": "nd", "replicates with signal": "0 of 3"}
{"CDR-L1": "KSSQSVKYESRNKNTVA", "CDR-L2": "WAVTRES", "CDR-L3": "QQYHRLPLS", "mean, log10 nM": "nd", "replicates with signal": "0 of 3"}
{"CDR-L1": "FSSQSVLYESRNKNSVA", "CDR-L2": "WASTRES", "CDR-L3": "QQYHRLPLM", "mean, log10 nM": "2.45", "replicates with signal": "2 of 3"}
{"CDR-L1": "KSSQSVLYESRNKNSVA", "CDR-L2": "WKPMRES", "CDR-L3": "QQYHRLPLS", "mean, log10 nM": "nd", "replicates with signal": "0 of 3"}
{"CDR-L1": "ESSQSVLYESRNKNSVA", "CDR-L2": "WASTRAS", "CDR-L3": "IQYHRLPLS", "mean, log10 nM": "4.18", "replicates with signal": "1 of 3"}
{"CDR-L1": "KSSASVLYESRNQNSCA", "CDR-L2": "WASTRES", "CDR-L3": "QQYHRLPLS", "mean, log10 nM": "4.85", "replicates with signal": "2 of 3"}
{"CDR-L1": "KSSQKVLYELRNKNSVA", "CDR-L2": "WASTRES", "CDR-L3": "LQYHRLPLS", "mean, log10 nM": "3.09", "replicates with signal": "3 of 3"}
{"CDR-L1": "KHSQIVLYESRNKNSVA", "CDR-L2": "WASTREY", "CDR-L3": "QQYHRLPLS", "mean, log10 nM": "nd", "replicates with signal": "0 of 3"}
{"CDR-L1": "KSSQSVLYESRNKNSVA", "CDR-L2": "WHSTAES", "CDR-L3": "QQYHRLSLS", "mean, log10 nM": "nd", "replicates with signal": "0 of 3"}
{"CDR-L1": "KSHQSVLYESRNINSVA", "CDR-L2": "WASTRES", "CDR-L3": "QQYHRLPQS", "mean, log10 nM": "4.49", "replicates with signal": "1 of 3"}
{"CDR-L1": "KSSQSVLYESRNKQSVA", "CDR-L2": "WASTRES", "CDR-L3": "QQYDRLPLS", "mean, log10 nM": "1.88", "replicates with signal": "3 of 3"}

The 2 strongest on average among those seen in every replicate, once more:

CDR-L1	CDR-L2	CDR-L3	mean, log10 nM	replicates with signal
KSSQSVLYESRNKNSVA	WASTREA	KQYHRLPLQ	0.51	3 of 3
KSAQSVLYESRNKNSMA	WASTRES	QQYHRLPLS	0.76	3 of 3

In this assay the parent's reference entry averaged 0.65; its copy inside this library read 1.68.
Background: pairings of library AAYL50 with three empty control strains gave a value in 18% of cases (median 4.19, 5th percentile 2.99). Values in that range, when seen in few replicates, are hard to tell from nonspecific mating.